# Measured values published in PubChem BioAssay AID1259313 (Sanford-Burnham Center for Chemical Genomics, 2017).
# The list shows a part of the results, in another mix than the full data. Activity calls are given as the source filed them.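 Rule for the calls: active = melting temperature shift of at least 10% of the positive control shift, at one fixed dose; inactive = the rest.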
# Tested on: Glutamate receptor ionotropic, NMDA 3A (GRIN3A) ligand-binding domain
# Experiment: binders of NR3A ligand-binding domain, primary screen, biophysical, differential scanning fluorimetry, uHTS (AID 1259313)
# Conditions: NR3A LBD differential scanning fluorimetry, at 25 µM, active compounds read high, 0% = protein alone, 100% = glycine-bound protein
row,SMILES,Tm shift relative to glycine control
1,CCC(=O)N(c1ccccc1)C1(COC)CCN(CCn2nnn(CC)c2=O)CC1,inactive: 0.88%
2,CCC(=O)N(c1ccccc1)C1(COC)CCN(CCc2cccs2)CC1,inactive: -0.4%
